## Binding of CDR-mutated scFvs to a peptide of the spike HR2 region

Target peptide (SARS-CoV-2 spike, HR2 region): PDVDLGDISGINAS

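The parent was found by panning a naive human phage display library on the peptide. In library AAYL51, one, two or three CDR residues were substituted; doubles and triples were drawn at random. AlphaSeq pools MATa yeast showing the antibodies with MATalpha yeast showing the peptide. Binding brings cells together so that they mate, and sequencing counts the barcode pairs among the diploids. A regression on co-assayed BCL2-family reference pairs converts the normalised counts of each replicate to an apparent Kd. There are three technical replicates.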

Ab-91 is the parent antibody, in scFv form: VL, then a 15-residue (Gly4Ser)3 linker, then VH. The light chain is unchanged in all variants.
VL: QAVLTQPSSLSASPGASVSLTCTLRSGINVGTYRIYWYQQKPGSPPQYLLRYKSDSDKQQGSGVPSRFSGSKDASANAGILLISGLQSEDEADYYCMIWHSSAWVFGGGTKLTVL
VH: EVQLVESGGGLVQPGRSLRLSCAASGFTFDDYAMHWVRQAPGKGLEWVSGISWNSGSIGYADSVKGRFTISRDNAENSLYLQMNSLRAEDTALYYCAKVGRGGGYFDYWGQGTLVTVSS

Variants are written as CDR1, CDR2 and CDR3 of the heavy chain (limits as in the source). Parent: GFTFDDYAMH, GISWNSGSIGYADSVK, VGRGGGYFDY. This list gathers variants with a substitution at N54 (VH, numbered from residue 1). Values are apparent Kd, the geometric mean of the replicates that gave a signal; lower means stronger binding. "not detected" marks a missing value. The strain was present, yet no cells mated with the target were sequenced in any replicate, which points to weak or no binding.

CDR-H1,CDR-H2,CDR-H3,apparent Kd,seen in
GFTFDDYAMH,GISWPSGSIGYADSVK,VGRGGGYFPW,11 µM,2 of 3
GFTFDDYAMH,GISWWSGSIQYADSVK,VGRGGGYRDY,not detected,0 of 3
GFTFDDYANH,GISWQSGSIGYWDSVK,VGRGGGYFDY,8.9 µM,1 of 3
GFTFDDYALH,GQSWLSGSIGYADSVK,VGRGGGYFDY,not detected,0 of 3
GFTFDDYAMH,GISWASGSIGYADSVK,VGRGGGYFDY,3.4 µM,3 of 3
GFTFDDYAMH,GISWEDGSIGYADSVK,VGRGGGYADY,1.4 mM,1 of 3
GFHFDDYAMH,GISWLSGSIGYADSVK,VGRGGKYFDY,3.7 µM,3 of 3
GFTFDDYAMH,GISWMYGSIGHADSVK,VGRGGGYFDY,not detected,0 of 3
GFTFDDYAMH,GISWVSGSIGYAASVK,VGRGGGYFDY,15 µM,1 of 3
GFTFDDYAMH,GIQWSSGSIGYADAVK,VGRGGGYFDY,not detected,0 of 3
GFTFDDYAMH,GISWVSGPIGYADSVK,VGSGGGYFDY,not detected,0 of 3
GFTFDDYAMH,GISWYSGSIGYADSVK,VGRIGEYFDY,41 µM,2 of 3
GFTFDDYAMH,GISWLSKSIGYADSVK,VGRGRGYFDY,5.9 µM,1 of 3
GFTFDDYALH,GISWESGSIGYADSVK,VGRGGGYFDW,not detected,0 of 3
GFTFFDYAMH,GISWFSGSITYADSVK,VGRGGGYFDY,not detected,0 of 3
GFTFDDYAMH,GISWSSGSIGYSDSVP,VGRGGGYFDY,170 µM,3 of 3
GFTFDDYAMH,GISWFSGSIGYADSVK,VGRGGGYFDY,94 µM,1 of 3
GFTFIDYAMH,GISWDSGSIGYADSVK,VGRGGGQFDY,16 nM,3 of 3
GFTFDDYMMH,GISWHSGSIGYADSVK,VGRGGPYFDY,320 µM,3 of 3
GFTFDDYAMH,GISWMSQSIGYADSVK,VGRGGGYFDY,10 µM,2 of 3
GFTFDDYAMH,GISWADGSIGSADSVK,VGRGGGYFDY,150 µM,3 of 3
GFTFDDYAMH,GISWVKGSIGYADSVK,VGRGGGYFVY,62 µM,1 of 3
GFTFDDYAMH,GISWFSGSCGYFDSVK,VGRGGGYFDY,not detected,0 of 3
GFTFDDYAMH,GISWFSGSIQYADSVK,VLRGGGYFDY,not detected,0 of 3
GFTFDDYAMH,GISWRSGSIGYADSWK,VGRGYGYFDY,220 µM,1 of 3
GFTFDDYAMH,GISWCSGSIGYADSVK,VGRGGGYFDK,not detected,0 of 3
GFTFDDYAMH,GISWDSSSIGYYDSVK,VGRGGGYFDY,not detected,0 of 3
GFTFDDYAMH,GISWISGSIGYYVSVK,VGRGGGYFDY,not detected,0 of 3
GFFFDDYAMH,GMSWFSGSIGYADSVK,VGRGGGYFDY,130 µM,3 of 3
GFTFDDYAMH,GISWGSGSIGVADSVK,VGMGGGYFDY,12 µM,1 of 3
GFTFDDYAMH,GGSWRSGSIGYADSVK,VGRGGGYFDY,not detected,0 of 3
GFTFDDYAMS,GISIISGSIGYADSVK,VGRGGGYFDY,48 µM,1 of 3
GFTLDDYAMH,GISWWSGSIGYADSVK,VGRGGGYFDD,8.9 µM,1 of 3
GFTFDDTAMH,GISWVQGSIGYADSVK,VGRGGGYFDY,220 µM,2 of 3
GFTFDDYAMH,GISWSSGNIGYADSVK,VGRGGGYFDY,not detected,0 of 3
GFTFDDYDCH,GISWASGSIGYADSVK,VGRGGGYFDY,490 µM,3 of 3
GFTFDDYAEH,GISWTSGSIGYADSVK,AGRGGGYFDY,not detected,0 of 3
GFTFIDYAMG,GISWISGSIGYADSVK,VGRGGGYFDY,not detected,0 of 3
GFTFDDYAMH,GISWMSGSIGYADSVK,YGRGGRYFDY,not detected,0 of 3
GFTFDDYAMH,GISWYSGSIGYADSVK,IGRGGGYFDY,not detected,0 of 3
GFTFDDYAMH,GISWKSWSIGYPDSVK,VGRGGGYFDY,not detected,0 of 3
GFEFDDYAMH,GISWWSGSIGYADSVK,VGRGNGYFDY,1.3 mM,1 of 3
GFTFCDYAMH,GISWESGSIGYADSVK,VGRVGGYFDY,30 µM,1 of 3
GFVFDDYAMH,GISWCSGSIGYADSSK,VGRGGGYFDY,not detected,0 of 3
VFTFDDYAMH,GISWRSGSIGYADSVK,GGRGGGYFDY,12 µM,1 of 3
GFTFDDYAMH,GISWDSGSIGYADSVK,VGRGYGYFDT,910 nM,2 of 3
GFTFDDYAMH,GMSWFSGSIGYADSVK,VGRGGYYFDY,not detected,0 of 3
GFTFDDYAMH,EISWTSGSIGYADIVK,VGRGGGYFDY,71 µM,1 of 3
GFTFDDYAMH,GISWKSGSIGYADVVK,VGRGGGYFIY,not detected,0 of 3
GFTFDDYAMH,GISFWSGSIGYADNVK,VGRGGGYFDY,25 µM,2 of 3
GFTFDDYAMH,GIDWHSGSIGYADSVK,VGRGGGYFVY,not detected,0 of 3

Picked from the list: the 4 lowest averages where every replicate gave a value.

| CDR-H1 | CDR-H2 | CDR-H3 | apparent Kd | seen in |
|---|---|---|---|---|
| GFTFIDYAMH | GISWDSGSIGYADSVK | VGRGGGQFDY | 16 nM | 3 of 3 |
| GFTFDDYAMH | GISWASGSIGYADSVK | VGRGGGYFDY | 3.4 µM | 3 of 3 |
| GFHFDDYAMH | GISWLSGSIGYADSVK | VGRGGKYFDY | 3.7 µM | 3 of 3 |
| GFFFDDYAMH | GMSWFSGSIGYADSVK | VGRGGGYFDY | 130 µM | 3 of 3 |

For reference, the parent read 72 nM as the reference entry and 7.5 nM as a member of this library. Nonspecific signal, from three strains lacking the peptide, appeared in 21% of pairings of library AAYL51, centred on 34 µM (5% of these signals below 1.8 µM); values are not corrected for it.

Source: Engelhart et al. 2022 (doi:10.1038/s41597-022-01779-4), MIT Lincoln Laboratory and A-Alpha Bio; data file from the FLAb repository.